Counter-ions that a name gives are not always drawn.
Molecular target: MASP-2 (CCP1-CCP2-SP) (Homo sapiens (Human), UniProt O00187)
Type: biochemical
Conditions: selectivity for MASP-2 inhibition versus thrombin

Chains of the proteins cited; added tags and fusions are not shown. Residues count along the entry.
UniProt O00187, 445-686: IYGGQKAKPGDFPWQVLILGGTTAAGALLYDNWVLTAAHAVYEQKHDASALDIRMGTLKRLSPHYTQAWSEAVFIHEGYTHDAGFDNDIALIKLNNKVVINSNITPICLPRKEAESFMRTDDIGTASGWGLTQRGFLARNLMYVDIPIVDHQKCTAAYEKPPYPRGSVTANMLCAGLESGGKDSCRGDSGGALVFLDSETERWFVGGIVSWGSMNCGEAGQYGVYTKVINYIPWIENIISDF

With `Cc1nc(N)ccc1CNC(=O)C(C)NC(=O)[C@H]1C[C@H](c2cccc(-c3ccccc3)c2)CN1` (stereo in doubt) [compound 1360, (2R,4R)-4-([1,1′-Biphenyl]-3-yl)-N—((R)-1-(((6-amino-2-methylpyridin-3-yl)methyl)amino)-1-oxopropan-2-yl)pyrrolidine-2-carboxamide Di-trifluoroacetate salt] the “MASP-2 vs. thrombin selectivity” value was “**** (≥100-fold)”.

— US11584714B2 (dated 2023)
